Source: PubChem BioAssay (ICCB-Longwood Screening Facility, Harvard Medical School)
Only some compounds are listed: those with a hit (about 0.43% of all), similar ones and a draw of the others.
GIV-Gai inh: blocks GIV peptide binding to rat Galpha-i3; Galpha-i3/FITC-GIV peptide fluorescence polarization, 90 min; stronger effect = lower value; scaled: aluminum fluoride 0%, vehicle 100%; P08753; hit rate 0.42% among 210,000; AID 1224905; percent of control (FP), % (test concentration not listed);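 active = replicate mean at 85% of control or lower, very high polarization wells dropped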;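 also: wells of about 15 µL received 100 nL stock; the first replicate is given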
HCMV NEC inh: disrupts HCMV UL50-UL53 complex binding. HTRF UL50-UL53 interaction, normalized percent inhibition. AID 1918969. actives 0.15% (n = 190,000). inhibition, % (concentration not given with the values); in the data active = inhibition above about 27%, passing the limit was not always enough
GIV Gai FP conf: confirmation of inhibitors of GIV binding to rat Galpha-i3; shares compounds with GIV-Gai inh; fluorescence polarization, mP at 100 µM; FITC-GIV peptide binding to Galphai3, fluorescence polarization; hits give low values; actives 38% (n = 580);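 active = inhibition score of 15 or more, meaning 100 minus mean polarization as percent of control over three replicates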;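 also: lower mP means peptide displaced from Galphai3 so more inhibition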
GIV-Gai AS conf: confirmation of inhibitors of GIV binding to human Galpha-i3; shares compounds with GIV-Gai inh; AID 1259351; actives 39% (n = 580); AlphaScreen Galphai3-GIV binding, purified proteins, 90 min; hits give low values; AlphaScreen counts at 100 µM;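 active = inhibition score at or above a set limit, where the score is 100 minus the three-replicate mean percent of control signal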
An asterisk follows results filed as active; · = no result.

The line under a structure holds: GIV-Gai inh, HCMV NEC inh, GIV Gai FP conf, GIV-Gai AS conf
> COc1cc(/C=C(\C#N)c2nc3ccccc3[nH]2)ccc1OCc1ccccc1F
→ 113, -48, ·, ·
> COc1cccc(/C=C(\C#N)c2nc3ccc(C)cc3[nH]2)c1
→ 70*, -37, 80, 34173
> CCC(=O)Oc1ccc(/C=C(\C#N)c2nc3ccccc3[nH]2)cc1OC
→ 89, -85, 92, 29157
> COc1cc(/C=C(\C#N)c2nc3ccc(C)cc3[nH]2)ccc1OCc1ccc(C)cc1
→ 106, -8, ·, ·
> COc1c(Cl)cc(Cl)cc1/C=C(\C#N)c1nc2ccccc2[nH]1
→ 46*, ·, 84, 32566
> N#C/C(=C/c1ccc(Cl)cc1Cl)c1nc2ccccc2c(=O)[nH]1
→ 106, -22, ·, ·
> O=C(NCCSc1c[nH]c2ccccc12)C1CCCC1
→ ·, -13, ·, ·
> CCOC(=O)/C(C#N)=C/c1ccc(-c2ccc(Cl)c(C(=O)OC)c2)o1
→ 65*, 0, 76, 22310
> CCOC(=O)/C(C#N)=C/c1ccc(-c2ccc(Br)cc2)o1
→ 105, 12, ·, ·
> CC(C)(O)CC1(CO)CCCCC1
→ 92, -4, 68, 46516
> CCc1cc(-c2csc(S(=O)(=O)N3CC=C(c4ccccc4)CC3)c2)on1
→ 100, ·, ·, ·
> O=C(Nc1ccc(N2CCOCC2)cc1)Nc1ccc2nc(-c3ccco3)c(-c3ccco3)nc2c1
→ 97, -38, ·, ·
> O=C(NCCCO)Nc1ccc2nc(-c3ccco3)c(-c3ccco3)nc2c1
→ 81*, 1, 58*, 1698*
> COC(=O)C1=CN(c2ccc(N(C)C)cc2)c2cc(Br)ccc2S1(=O)=O
→ 98, ·, ·, ·
> CN1CCCc2cc(C(CNC(=O)c3ccc(Br)cc3)N3CCCC3)ccc21 (stereo unspecified)
→ 101, -13, ·, ·
> COc1ccc2c(c1)N(C1CCCCC1)/C(=C1/SC(=S)N(C)C1=O)S2
→ 109, ·, ·, ·
> COc1ccc2c(c1)N(C)/C(=C1/SC(=S)N(C)C1=O)S2
→ 94, -3, 72, 33947
> CCN(c1ccccc1)S(=O)(=O)c1ccc(N2CCCCS2(=O)=O)cc1
→ 108, -9, ·, ·
> CCc1cccc(NC(=O)CCn2c(=O)c3cccn3c3ccccc32)c1
→ 104, -9, ·, ·
> O=C(Nc1nc2c(s1)CCCC2)c1ccccc1
→ ·, -14, ·, ·
> CN(C)C(=O)CSc1nc2nc[nH]c2c(=O)[nH]1
→ 100, -10, ·, ·
> CCN(Cc1ccccc1)C(=O)c1cc2c(=O)n3ccccc3nc2n1C
→ 102, -50, ·, ·
> CN(Cc1ccccc1)C(=O)c1cc2c(=O)n3ccccc3nc2n1C
→ 68*, -30, 70, 35770
> O=C(Nc1cccnc1)c1nc(-n2cnnc2)ccc1Br
→ 102, ·, ·, ·
> CCOC(=O)CSc1nc(NCc2ccc3c(c2)OCO3)c2ccccc2n1
→ 112, ·, ·, ·
> CCOC(=O)c1nc2ccccc2nc1NCc1ccc2c(c1)OCO2
→ 93, -13, 68, 39953
> O=C1C(=O)c2ccccc2C(O)=C1c1ccccc1F
→ 96, -109, ·, ·
> O=C1C(c2ccnc3ccccc23)=C(O)c2ccccc21
→ 64*, -40, 76, 34509
> Cc1ccc(NC(=O)c2cc3ccccc3oc2=O)cc1C
→ ·, 2, ·, ·
> COc1ccccc1C1(C#N)C(=O)Nc2ccccc21 (stereo unspecified)
→ ·, 8, ·, ·

The line under a structure holds: GIV-Gai inh, HCMV NEC inh, GIV Gai FP conf, GIV-Gai AS conf
> CC(C)CC1N=C2c3ccccc3N=C(SC(C)C(=O)Nc3ccccc3)N2C1=O (stereo unspecified)
→ 102, 2, ·, ·
> COC(=O)c1c(NC(=O)CC2Sc3ccccc3NC2=O)sc(C)c1C (stereo unspecified)
→ ·, 8, ·, ·
> COC(=O)c1c(NC(=O)CC2Nc3cc(C)c(C)cc3NC2=O)sc(C)c1C (stereo unspecified)
→ 94, ·, 22*, 26621
> CCOC(=O)CN1C(=O)C2CC=C(Cl)CC2C1=O (stereo unspecified)
→ 81*, -16, 61, 47532
> O=C1C2CC=C(Cl)CC2C(=O)N1CCO (stereo unspecified)
→ 104, 9, ·, ·
> Cc1ccc(-c2nc(N3CCC4(CC3)OCCO4)c3ccccc3n2)cc1
→ 107, -18, ·, ·
> CCOC(=O)c1c(C)oc2c1c(C=NC(C)c1ccccc1)c(O)c1ccccc12 (stereo unspecified)
→ 103, ·, ·, ·
> CCOC(=O)c1c(C)oc2c1c(O)c(N=O)c1ccccc12
→ 42*, -53, 48*, 50417
> CCOP(=O)(OCC)C(Nc1cccc(CC)c1)c1cc(Cl)cc(Cl)c1OC (stereo unspecified)
→ 102, ·, ·, ·
> COc1cc(C2CC(=O)NC(SCC(=O)Nc3ccc(Br)cc3)=C2C#N)ccc1O (stereo unspecified)
→ 101, -13, ·, ·
> Cc1[nH]n(-c2ccccc2)c(=O)c1C(c1cccc([N+](=O)[O-])c1)c1c(C)[nH]n(-c2ccccc2)c1=O
→ 103, ·, ·, ·
> Cc1[nH]n(-c2ccccc2)c(=O)c1C(c1cccc(Br)c1)c1c(C)[nH]n(-c2ccccc2)c1=O
→ 74*, ·, 68, 23480*
> COc1ccccc1C(c1c(C)[nH]n(-c2ccccc2)c1=O)c1c(C)[nH]n(-c2ccccc2)c1=O
→ 74*, ·, 66, 42679
> CCCCCCCOc1ccc(C(c2c(C)[nH]n(-c3ccccc3)c2=O)c2c(C)[nH]n(-c3ccccc3)c2=O)cc1
→ 82*, ·, 73, 41609
> Cc1[nH]n(-c2ccccc2)c(=O)c1C(c1cccc(O)c1)c1c(C)[nH]n(-c2ccccc2)c1=O
→ 66*, ·, 51*, 11539*
> CCOc1ccccc1C(c1c(C)[nH]n(-c2ccccc2)c1=O)c1c(C)[nH]n(-c2ccccc2)c1=O
→ 113, ·, ·, ·
> COc1cc(C(c2c(C)[nH]n(-c3ccccc3)c2=O)c2c(C)[nH]n(-c3ccccc3)c2=O)ccc1O
→ 120, ·, ·, ·
> Cc1[nH]n(-c2ccccc2)c(=O)c1C(c1ccc(OCc2ccccc2Cl)cc1)c1c(C)[nH]n(-c2ccccc2)c1=O
→ 107, ·, ·, ·
> Cc1ccc(C(=O)Oc2ccc3c(c2OC(=O)c2ccc(C)cc2)-c2cccc4c2C(C3)N(C)CC4)cc1 (stereo unspecified)
→ 114, ·, ·, ·
> CCOC(=O)c1c(NC(=O)Cn2c(-n3nc(C)cc3C)nc(C)c(C)c2=O)sc2c1CCC2
→ 109, ·, ·, ·
> O=C1CC(c2cc(Br)ccc2F)c2cnn(-c3ccc(F)cc3)c2N1 (stereo unspecified)
→ 105, ·, ·, ·
> COC(=O)c1cc(NC(=O)C2CCCN(S(=O)(=O)Cc3ccc(F)cc3)C2)ccc1Cl (stereo unspecified)
→ 99, ·, ·, ·
> Cc1nn(-c2ccccc2)c2c1nc(CCC(=O)Nc1cccc(Cl)c1)c(=O)n2C
→ 107, -31, ·, ·
> Cc1[nH]n(-c2ccccc2)c(=O)c1C(c1ccc(N(C)C)cc1)c1c(C)[nH]n(-c2ccccc2)c1=O
→ 104, ·, ·, ·
> Cc1[nH]n(-c2ccccc2)c(=O)c1C(c1ccccc1)c1c(C)[nH]n(-c2ccccc2)c1=O
→ 77*, ·, 63, 18252*
> CSC(=C(C#N)C#N)N1CCCC1
→ ·, -9, ·, ·
> CCOC(=O)c1[nH]c(=O)[nH]c1CC1C(=O)CC(C)(C)CC1=O
→ ·, 4, ·, ·
> Cc1ccc(C)c(S(=O)(=O)c2nnn3c2nc(N2CCC(C(N)=O)CC2)c2sccc23)c1
→ 96, -9, ·, ·
> Cc1nc2cc(-c3noc(-c4cnccn4)n3)ccc2n(C(C)C)c1=O
→ 106, -40, 91, 35710
> CCn1nnc2cc(-c3noc(-c4cnccn4)n3)ccc21
→ 98, ·, ·, ·

Shown with tabs: three of the compounds above.
Molecule	GIV-Gai inh	HCMV NEC inh	GIV Gai FP conf	GIV-Gai AS conf
O=C1C(c2ccnc3ccccc23)=C(O)c2ccccc21	64*	-40	76	34509
Cc1[nH]n(-c2ccccc2)c(=O)c1C(c1ccc(N(C)C)cc1)c1c(C)[nH]n(-c2ccccc2)c1=O	104	·	·	·
O=C1C(=O)c2ccccc2C(O)=C1c1ccccc1F	96	-109	·	·

As entered above:
Result of Cc1ccc(C)c(S(=O)(=O)c2nnn3c2nc(N2CCC(C(N)=O)CC2)c2sccc23)c1 under GIV-Gai inh: 96
Result of Cc1nc2cc(-c3noc(-c4cnccn4)n3)ccc2n(C(C)C)c1=O under GIV-Gai AS conf: 35710
Result of COc1cc(C2CC(=O)NC(SCC(=O)Nc3ccc(Br)cc3)=C2C#N)ccc1O (stereo unspecified) under GIV-Gai inh: 101
Result of CCCCCCCOc1ccc(C(c2c(C)[nH]n(-c3ccccc3)c2=O)c2c(C)[nH]n(-c3ccccc3)c2=O)cc1 under GIV-Gai inh: 82*
Result of Cc1nn(-c2ccccc2)c2c1nc(CCC(=O)Nc1cccc(Cl)c1)c(=O)n2C under HCMV NEC inh: -31
